Measured values: US9956304B2, “Contrast agents, methods for preparing contrast agents, and methods of imaging” (GEORGIA STATE UNIVERSITY RESEARCH FOUNDATION, INC., priority 2012, dated 2018)

Protein sequences, listed by entry. Tags and fused reporters are not part of them. Lines headed by an entry give the natural chain unless they say otherwise; changes in a name come on top.
UniProt P30550: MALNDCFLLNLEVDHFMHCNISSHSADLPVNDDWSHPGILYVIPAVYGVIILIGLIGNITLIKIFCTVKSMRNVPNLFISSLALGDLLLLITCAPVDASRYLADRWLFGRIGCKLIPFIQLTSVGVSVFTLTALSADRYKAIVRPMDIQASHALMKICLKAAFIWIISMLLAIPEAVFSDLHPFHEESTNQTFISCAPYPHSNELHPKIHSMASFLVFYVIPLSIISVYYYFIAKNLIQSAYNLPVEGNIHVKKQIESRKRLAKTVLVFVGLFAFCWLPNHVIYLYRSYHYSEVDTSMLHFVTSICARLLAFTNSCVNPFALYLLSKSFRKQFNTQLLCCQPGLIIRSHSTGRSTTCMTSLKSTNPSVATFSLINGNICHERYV

Target: T1, GRPR (Homo sapiens, UniProt P30550)
T1 construct: H441 has a low expression level of GRPR while PC3 has high expression level of GRPR; endogenous in cells; host or cells: PC3 and H441 cells (cultured, as lysate, or as xenograft tumours in mice)
Assay: MRI, NIR and staining of H441 and PC3 xenografts
Format: in vivo, athymic mice
Experimental: H441 and PC3 cancer cell lines which express different levels of GRPR were injected in left and right flank of athymic mice which grew up as tumor (1 cm) xenograft models. The contrast agent ProCA1B14 (5 μM, 50 μl) was injected into the mice by tail vein injection. MR images were recorded at different time points (pre-scan and 10 min, 30 min, 24 h, and 48 h after injection) to trace the change of contrast enhancement in tumor regions. The contrast enhancement of H441 tumor increased gradually and reached the highest level at the time point 24 h post injection. Then, the signal intensity of H441 began to decrease. While, the contrast enhancement of PC3 tumor increased gradually and reached the highest level at the time point 48 h post injection. There is an interesting phenomenon that the signal intensity of PC3 was lower than that of H441 before 24 h, however, the condition reversed after 24 h. The possible reason is that more and more free ProCA1B14 went through the whole body of mice and targeted to GRPR on PC3 tumor surface because PC3 has higher GRPR expression level than that of H441.
Consistent with MR imaging, we observed a strong NIR light emission from the PC3 tumor and H441 tumor at 48 h post injection of ProCA1B14. […] To probe the distribution of ProCA1B14 in the tumor tissues after MRI scan, we did immunofluorescence staining. The mice with xenografted tumors were sacrificed and representative organs were immersed in flek O.C.T and fixed by liquid nitrogen. All the samples were stored at −80° C. The cryosectioning was performed by cryostas (Biology facility, GSU). The anti-ProCA1 primary antibody reacted with ProCAB14, which binds GRPR and accumulated in the tissues. The goat anti rabbit secondary antibody conjugated with fluo 594 was added to react with the primary antibody. The immunofluorescence intensity signal was coming from the recognition of secondary antibody conjugated with fluorescence dye to anti-ProCA1 primary antibody. Compare the fluorescence intensity, ProCA1B14 binds GRPR on PC3 and H441 tumors and some of them were internalized in the cell.
To detect the location of ProCA1B14 in the examined tumor tissues, we did immunohistochemistry staining. The mice with xenografted tumors were sacrificed and representative organs were immersed in flek O.C.T and fixed by liquid nitrogen. All the samples were stored at −80° C. The cryosectioning was performed by cryostas (Biology facility, GSU). The frozen tissue samples were stained by using the IHC protocol mentioned above. As shown in the FIG. 17, the brown color indicates the staining of ProCA1B14 binding to the GRPR on tumors, while the blue color indicates the hematoxylin background staining. […] The IHC results were consistent with our MRI data and confirmed that our ProCA1B14 can be used as a MRI contrast agent to semi-quantitatively analyze the receptor change in tumors.

- time of highest contrast enhancement, H441 tumor (post injection): 24 h
- time of highest contrast enhancement, PC3 tumor (post injection): 48 h
B1: ProCA1B14: ProCA1 (CD2) with internally grafted bombesin variant B14 targeting GRPR (protein)
chain: RDSGTVWGALGHGIELNIPNFQMTDDIDEVRWERGSTLVAEFKRKMKPFLKSGGSGGEQRLGNQWAVGHLMGGSGGAFEIDANGDLDIKNLTRDDSGTYNVTVYSTNGTRILNKALDLRILE
modifications: ProCA1 sequence 3
- NIR intensities of tumors (48 h post injection): NIR intensities at H441 tumor site were much less than that of the PC3 tumor
- immunofluorescence staining of tumor tissues (mouse, in vivo): PC3 tumor showed stronger staining than that of H441 tumor
- immunohistochemistry staining of tumor tissues (mouse, in vivo): PC3 tumor showed stronger brown color than that of H441 tumor
